# Molecular target: Vasoactive intestinal polypeptide receptor 1 (Homo sapiens, UniProt P32241)
# The chains behind the UniProt entries cited, without tags or fusion partners.
# UniProt P32241, whole entry: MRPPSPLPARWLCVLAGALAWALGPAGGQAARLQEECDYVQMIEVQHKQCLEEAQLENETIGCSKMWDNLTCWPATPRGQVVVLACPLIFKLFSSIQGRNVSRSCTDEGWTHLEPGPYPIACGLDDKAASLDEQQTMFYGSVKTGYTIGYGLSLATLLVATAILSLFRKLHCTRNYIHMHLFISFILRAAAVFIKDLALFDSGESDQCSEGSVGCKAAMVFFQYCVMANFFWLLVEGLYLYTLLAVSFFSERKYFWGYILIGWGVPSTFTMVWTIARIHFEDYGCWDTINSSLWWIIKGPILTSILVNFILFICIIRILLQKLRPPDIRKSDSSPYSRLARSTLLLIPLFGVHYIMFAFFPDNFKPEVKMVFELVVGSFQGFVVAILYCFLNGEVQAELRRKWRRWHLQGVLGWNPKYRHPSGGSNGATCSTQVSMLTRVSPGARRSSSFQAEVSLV
# Test: Binding affinity to human VPAC1 receptor by radioligand displacement assay
smiles,measurement,value
CC[C@H](C)[C@H](NC(=O)CNC(=O)[C@H](CC(=O)O)NC(=O)[C@H](CO)NC(=O)[C@@H](N)Cc1cnc[nH]1)C(=O)N[C@@H](Cc1ccccc1)C(=O)N[C@H](C(=O)N[C@@H](CC(=O)O)C(=O)N[C@@H](CO)C(=O)N[C@@H](Cc1ccc(O)cc1)C(=O)N[C@@H](CO)C(=O)N[C@@H](CCCNC(=N)N)C(=O)N[C@@H](Cc1ccc(O)cc1)C(=O)N[C@@H](CCCNC(=N)N)C(=O)N[C@@H](CCCCN)C(=O)N[C@@H](CCC(N)=O)C(=O)N[C@@H](CCSC)C(=O)N[C@@H](C)C(=O)N[C@H](C(=O)N[C@@H](CCCCN)C(=O)N[C@@H](CCCCN)C(=O)N[C@@H](Cc1ccc(O)cc1)C(=O)N[C@@H](CC(C)C)C(=O)N[C@@H](C)C(=O)N[C@@H](C)C(=O)N[C@H](C(=O)N[C@@H](CC(C)C)C(=O)NCC(=O)N[C@@H](CCCCN)C(=O)N[C@@H](CCCNC(=N)N)C(=O)N[C@@H](Cc1ccc(O)cc1)C(=O)N[C@@H](CCCCN)C(=O)N[C@@H](CCC(N)=O)C(=O)N[C@@H](CCCNC(=N)N)C(=O)N[C@H](C(=O)N[C@@H](CCCCN)C(=O)N[C@@H](CC(N)=O)C(=O)N[C@@H](CCCCN)C(N)=O)C(C)C)C(C)C)C(C)C)[C@@H](C)O,IC50,0.05 nM

# — ChEMBL document CHEMBL2390917, “Synthesis and biological evaluation of 2-(5-methyl-4-phenyl-2-oxopyrrolidin-1-yl)-acetamide stereoisomers as novel positive allosteric modulators of sigma-1 receptor” (Bioorg Med Chem, 2013)
